## OPERA 2.9 data: melting point values

From the experimental data distributed with OPERA 2.9.

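The numbers are reported measurements, compiled and curated for the OPERA QSAR suite. One number stands for a compound and property, with no spread given. Conditions of the individual experiments are not part of the data. Where a salt, mixture or single isomer is drawn, the source does not say that exactly this form was tested. Unmarked limits or estimates from the upstream databases cannot be ruled out.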

The melting point is given in degrees Celsius.
The databases behind each value are named after "via".

Listed for Nc1cc(S(=O)(=O)O)cc(S(=O)(=O)O)c1[O-].[K+]: mp 215 °C (via eChemPortal). Listed for Cc1c(C(=O)O)sc2nc[nH]c(=O)c12: mp 250 °C (via OCHEM). Listed for CCN(CC)S(=O)(=O)c1ccc(NC)c(N)c1: mp 120 °C (via OCHEM). Listed for COC(=O)C(C#N)c1nc2ccccc2nc1Cl (stereo not drawn): mp 198 °C (via OCHEM). For Cc1ccc(C=CC(=O)O)o1 the data give mp 119 °C (via OCHEM).

The entry for O=c1[nH][nH]c(=O)c2ccccc12 lists mp 343.5 °C (via OCHEM). O=C1C=CC(=O)N1c1cccc(C(F)(F)F)c1 has mp 68 °C (via OCHEM). c1ccc2c(c1)ccc1c3ccccc3c3ccccc3c21 has mp 114.5 °C (via PubChem). Listed for O=C(O)CCc1nnc(-c2ccccc2)o1: mp 145 °C (via OCHEM). NS(=O)(=O)c1ccc2c(c1)CCN2 has mp 164 °C (via OCHEM).

The entry for Cn1c(-c2ccccc2)c[nH]c1=S lists mp 181 °C (via OCHEM). For CC(C)(C)C(=O)N1CCNCC1 the data give mp 53 °C (via OCHEM). The entry for Cc1ccc2c(CCl)cc(=O)oc2c1C lists mp 175 °C (via OCHEM). For O=C(O)C1CC(=O)N(CCc2ccccc2)C1 (stereo not drawn) the data give mp 189 °C (via OCHEM). For CCN(CC)CCOC(c1ccccc1)c1ccccc1.Cl the data give mp 140 °C (via OCHEM).

O=C1C=CC(=O)N1c1ccc(F)c(Cl)c1 has mp 160 °C (via OCHEM). Listed for Clc1nc(-c2cccs2)nc2ccccc12: mp 124 °C (via OCHEM). The entry for N#CCc1ccccc1C(=O)O lists mp 107 °C (via OCHEM). O=C(CCl)c1ccc2[nH]c(=O)[nH]c2c1 has mp 284 °C (via OCHEM). O=c1nc(CCl)[nH]c2c1oc1ccccc12 is reported with mp 99 °C (via OCHEM).

Listed for Cc1ccc(C)c(S(N)(=O)=O)c1: mp 150 °C (via OCHEM). Cc1nc(C(C)C)sc1C(=O)O is reported with mp 170 °C (via OCHEM). Cc1cc2ccccc2n1CC(=O)O has mp 185 °C (via OCHEM). For COC(=O)C(=O)CC(=O)c1cc(OC)ccc1OC the data give mp 87.5 °C (via OCHEM). The entry for Cc1cc(C=O)c(C)n1-c1ccc(F)cc1 lists mp 101 °C (via OCHEM).

The entry for Cc1nc(N)oc1C lists mp 65 °C (via OCHEM). C=CC[N+]1(CCC(C)CCCC(C)C)CCCCC1.[Br-] (stereo not drawn) has mp 75 °C (via OCHEM). Listed for N#Cc1cnc(C(F)(F)C(F)(F)C(F)(F)F)nc1N: mp 148.5 °C (via ChemicalBook). C1CCC(NC2=NCCCS2)CC1 has mp 113 °C (via OCHEM). The entry for S=c1nc(-c2ccccc2Br)[nH][nH]1 lists mp 196 °C (via OCHEM).

For O=C(OCc1ccccc1)N1CCC2(CC1)CNc1ccccc12 the data give mp 124 °C (via OCHEM). For O=C(O)Cc1csc(-c2ccc(F)cc2)n1 the data give mp 130 °C (via OCHEM). For COc1c(OC)c(OC(C)=O)c2c(C#N)cccc2c1OC(C)=O the data give mp 152 °C (via OCHEM). Listed for O=C(CCl)NCc1ccccc1F: mp 80 °C (via OCHEM). ClCc1coc(-c2ccc(Cl)cc2)n1 is reported with mp 92 °C (via OCHEM).

O=[N+]([O-])C(Br)=Cc1ccccc1 has mp 68.06 °C (via PubChem). Cc1cc(O)c2c(c1O)C(=O)C13C(=C(O)C4C(O)C1C1C(O)C3C(O)=C3C(=O)c5c(O)cc(C)c(O)c5C(=O)C341)C2=O (stereo not drawn) is reported with mp 287 °C (via PubChem). The entry for Nc1n[nH]c(-c2ccc(Br)cc2)n1 lists mp 215 °C (via OCHEM). For CCN(CC)Cc1ccc(O)c2ncccc12 the data give mp 61 °C (via OCHEM). Listed for Cc1cc(C)c(C(=O)O)c(Cl)n1: mp 80 °C (via OCHEM).

COc1ccccc1C(=O)CC#N is reported with mp 73 °C (via OCHEM). The entry for O=C(O)c1ccn(-c2ccccc2)n1 lists mp 139 °C (via OCHEM). Cc1ccccc1NCCNc1ccccc1C has mp 71.5 °C (via OCHEM). The entry for O=C(O)CC1SC(Nc2ccccc2)=NC1=O (stereo not drawn) lists mp 203 °C (via OCHEM). Listed for CC(C)N1C(=O)NC(=O)C1=O: mp 94 °C (via OCHEM).

S=c1nc(-c2ccccc2)c(-c2ccccc2)n[nH]1 is reported with mp 223 °C (via OCHEM). The entry for Cc1ccc(OC(C)C(=O)O)cc1 (stereo not drawn) lists mp 102 °C (via OCHEM). The entry for O=C(O)CCc1ncc(-c2ccc(F)cc2)o1 lists mp 145 °C (via OCHEM). For O=C(O)c1ccc2c(c1)CCC2 the data give mp 174 °C (via OCHEM).

A selection of 5 entries from above:

compound	mp (°C)	via
Cc1cc(C)c(C(=O)O)c(Cl)n1	80	OCHEM
Cc1c(C(=O)O)sc2nc[nH]c(=O)c12	250	OCHEM
Clc1nc(-c2cccs2)nc2ccccc12	124	OCHEM
CC(C)(C)C(=O)N1CCNCC1	53	OCHEM
Cc1ccc(C=CC(=O)O)o1	119	OCHEM